# AlphaSeq binding of Ab-14 heavy chain variants to a spike HR2 peptide

Values reported by Li et al. 2023, doi:10.1038/s41467-023-39022-2 (FLAb copy).

Target: peptide PDVDLGDISGINAS, taken from heptad repeat 2 (HR2) of SARS-CoV-2 spike.

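Phage display of a naive human antibody library on the peptide gave the parent. This is the validation round: designs drawn from the data on random variants, tested in the same kind of assay. Their group label is 14H_En_Gibbs (En: ensemble of fine-tuned language models; Gibbs: Gibbs sampling). In AlphaSeq, yeast of one mating type display the scFv and yeast of the other type display the target. After mating in shaken culture at 30 °C for 16 h, diploids were selected and their barcode pairs sequenced. Read counts were normalised to the haploid input and turned into Kd by a linear fit to BCL2-family pairs of known affinity, for each replicate. Each pool was mated in six replicate cultures.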

The variants keep the light chain, the linker and the frameworks of Ab-14 (scFv order VH, a 15-residue (Gly4Ser)3 linker, VL).
VH: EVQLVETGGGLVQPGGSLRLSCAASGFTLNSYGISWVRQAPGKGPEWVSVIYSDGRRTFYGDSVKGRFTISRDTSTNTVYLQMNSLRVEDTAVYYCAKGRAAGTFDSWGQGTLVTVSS
VL: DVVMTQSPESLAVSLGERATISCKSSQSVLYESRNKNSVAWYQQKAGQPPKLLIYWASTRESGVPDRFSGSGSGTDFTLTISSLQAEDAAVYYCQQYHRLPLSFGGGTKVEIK

Variants are written as CDR1, CDR2 and CDR3 of the heavy chain (limits as in the source). Parent: GFTLNSYGIS, VIYSDGRRTFYGDSVK, GRAAGTFDS. Numbers give log10(Kd / nM), so 0 is 1 nM and 3 is 1 µM. Smaller is tighter. Where no diploid with the target was found in that replicate, the entry reads "n.d.": below detection, most likely a poor binder, though not proof of it. The authors averaged sequences with at least three values out of six and counted those with two or fewer as poor binders.

CDR-H1 | CDR-H2 | CDR-H3 | replicates, log10 nM | empty controls
GFDIDEYGIS | VIYADGSRTAYSKNFK | GEDGIMLLF | n.d. n.d. n.d. n.d. n.d. n.d. | 0 of 18
GFDLDEEGIS | VIYADGSRTAYSKNVK | GGFDIKVIV | n.d. n.d. n.d. n.d. n.d. n.d. | 0 of 18
GFDLNEYGIS | VIYADGIRSRYANKVK | GNGAGTLDD | n.d. n.d. n.d. n.d. n.d. n.d. | 1 of 18 (2.32)
GFDLEKYGIS | VIYADGYRSAYAQNVK | GGHAGGFHV | n.d. n.d. n.d. n.d. n.d. n.d. | 1 of 18 (2.78)
GEQLDEYGIS | VIYADGRRTAYSQSVK | GQNGGIIDV | n.d. n.d. n.d. n.d. n.d. n.d. | 0 of 18
GKGLDEYGVS | VIYADGKRHQYAEDVK | GGLAGQFDV | n.d. n.d. n.d. n.d. n.d. n.d. | 0 of 18
GFDLSEYGIS | VIYADGERANYVSNFK | GVQAGTFVL | n.d. n.d. n.d. n.d. n.d. n.d. | 0 of 18
GFDLEEYGIS | VIYADGRRTYAVDAVK | GHADDLGLV | n.d. n.d. n.d. n.d. n.d. 3.74 | 0 of 18
GFNIQEYGIS | VIYADGKRTAYAEPVK | GEIGGTIDT | n.d. n.d. n.d. n.d. 2.05 2.16 | 0 of 18
GFELDEYGIS | VIYADGKRKFYAQTVK | GETDGMILD | n.d. n.d. n.d. n.d. n.d. n.d. | 0 of 18
GYDLVEYGIS | VIYADGQRTVYADDVK | GNHGGTIDT | n.d. n.d. n.d. n.d. n.d. n.d. | 0 of 18
GFDINEYGVS | VIYADGNRTMYQDQVK | GIEGGSFVL | n.d. n.d. n.d. n.d. n.d. n.d. | 0 of 18
GFDISEYGIS | VIYADGKKTQYKNAVK | GENGGYFNV | n.d. n.d. n.d. 0.45 n.d. n.d. | 0 of 18
GQDINEYGIS | VIYADGRRKAYVQQVK | GQNLGDVEV | n.d. n.d. n.d. n.d. n.d. n.d. | 0 of 18
GFSLNEYGIS | VIYADGMRTYYTESVK | GNIFDQLFV | n.d. n.d. n.d. n.d. n.d. n.d. | 0 of 18
GMDLGEYGIS | VIYADGVRQSYVDKVK | GFNGVDLLV | n.d. 2.40 1.97 2.46 3.08 2.53 | 0 of 18
GKHLDEYGIS | VIYADGQRVFYSNTVK | GIQGFNVDV | n.d. n.d. n.d. n.d. n.d. n.d. | 0 of 18
GFDLNEYGIS | VIYADGKRYHYQDSVK | GGVVGKVLY | n.d. n.d. n.d. n.d. n.d. n.d. | 0 of 18
GFDIKEYGIS | VIYADGVRTHYADDVK | GKHTGTNMA | 2.34 2.11 1.86 2.41 1.84 1.69 | 0 of 18
GFDVDEYGIS | VIYADGKRSMYADKVK | GVIADGMMV | n.d. n.d. n.d. n.d. n.d. n.d. | 0 of 18
GFDLEKYGIS | VIYADGIRMSYADNVK | GVYSGTDYV | 1.95 n.d. n.d. n.d. n.d. n.d. | 0 of 18
GFDLNEYGIS | VIYADGQRTQYASSFK | GDLAGYFES | n.d. n.d. n.d. n.d. n.d. n.d. | 0 of 18
GADINEYGIS | VIYADGNRIAYQDQVK | GNNAGSFDI | n.d. n.d. n.d. n.d. n.d. 2.86 | 1 of 18 (2.06)
GMDLNEYGIS | VIYADGLRTAYINAVK | GKGSVIVGH | n.d. n.d. n.d. n.d. n.d. n.d. | 0 of 18
GFDINEYGIS | VIYADGIRKVYANKFK | GDSGGIINF | n.d. n.d. n.d. n.d. n.d. 3.26 | 3 of 18 (2.91)
GKNIDEYGVS | VIYADGKRTAYANNFK | GSNAGFFKS | n.d. n.d. n.d. n.d. n.d. n.d. | 0 of 18
GFQLDEYGIS | VIYADGVRSSYVDDVK | GEITGAFSV | n.d. n.d. n.d. n.d. n.d. n.d. | 0 of 18
GFDLDNEGIS | VIYADGIRTAYQDSVK | GQNVATFNV | n.d. n.d. n.d. n.d. n.d. n.d. | 0 of 18
GNSLQEYGIS | VIYADGMRNQYANTVK | GMEAGVFVY | n.d. n.d. n.d. n.d. n.d. n.d. | 0 of 18
KFDIEEYGIS | VIYADGERTSYSNAVK | GNMGGTFQT | 1.42 n.d. n.d. n.d. n.d. n.d. | 1 of 18 (1.71)
GYDLMEYGIS | VIYADGRRVYYIDDVK | GHVAGHFLL | n.d. n.d. n.d. 2.16 n.d. n.d. | 1 of 18 (2.19)
GFHLDEYGIS | VIYADGRRVFYQDKVK | GHHGTVAVM | n.d. n.d. n.d. n.d. n.d. n.d. | 0 of 18
GFDLDEYGIS | VIYADGTRSGYTANVK | GEAAGFTMF | n.d. n.d. n.d. n.d. n.d. n.d. | 0 of 18
FFKLEDYGIS | VIYADGKRKAYVQNVK | GQIAGTFDV | n.d. n.d. n.d. n.d. n.d. n.d. | 0 of 18
GFSLDEYGIS | VIYADGIRRVYIDKVK | GNYGGDFIE | n.d. n.d. n.d. n.d. n.d. n.d. | 0 of 18
GFDLDEYGIS | VIYADGTRRYYADNVK | GDYVYVNST | n.d. n.d. n.d. n.d. 3.47 n.d. | 0 of 18
GFNLEEYGIS | VIYADGMRTFYTDKVK | GGLDDQEGY | n.d. n.d. n.d. n.d. n.d. n.d. | 0 of 18
GFDLGEYGIS | VIYADGSRSAYAKNVK | GGSVYKDAV | n.d. n.d. n.d. n.d. n.d. n.d. | 0 of 18
GGDLEKYGIS | VIYADGKRSEYSDAVK | GQQAGTLNT | n.d. n.d. n.d. n.d. n.d. n.d. | 0 of 18

The first 2 entries again:

CDR-H1	CDR-H2	CDR-H3	replicates, log10 nM	empty controls
GFDIDEYGIS	VIYADGSRTAYSKNFK	GEDGIMLLF	n.d. n.d. n.d. n.d. n.d. n.d.	0 of 18
GFDLDEEGIS	VIYADGSRTAYSKNVK	GGFDIKVIV	n.d. n.d. n.d. n.d. n.d. n.d.	0 of 18

Three control strains display no target. For all heavy chain designs, 1% of the pairings with them gave a signal, with a median of 2.08 and one signal in twenty below 0.84, so weak values seen in few replicates may be background. For each scFv, signals with the empty controls are counted beside the result, with their mean in brackets. The range of this assay differs from that of the first round, and the authors advise against merging the two. Of ten entries with the parent sequence, four were seen in most replicates (averages 0.34 to 2.37), three in one and three in none, so single entries are noisy.